In the assay the target is SERT (Homo sapiens (Human), UniProt P31645). Description: cell-based. Format: cell-based.

Where two headings read alike, the source gives them in different places.

As for `COc1ccc([C@@]23CCN(C)[C@@H]2CC2(CC3)OCCS2)cc1OC` (stereo partly drawn) [Compound 070, (3′aR,7′aR)-3′a-(3,4-dimethoxyphenyl)-1′-methyl-spiro[1,3-oxathiolane-2,6′-2,3,4,5,7,7a-hexahydroindole]], for the setting “read-out: SERT IC50”, the IC50 (commonly the point on the concentration scale where inhibition reaches its midpoint) lay in the range of 100 to 500 nM.
As for `COc1ccc([C@]23CCN(C)[C@H]2CC2(CC3)OC[C@@H](c3ccccc3)O2)cc1OC` (stereo partly drawn) [Compound 081, (3′aS,4R,7′aS)-3′a-(3,4-dimethoxyphenyl)-1′-methyl-4-phenyl-spiro[1,3-dioxolane-2,6′-2,3,4,5,7,7a-hexahydroindole]], the half-maximal inhibitory concentration (IC50) (read-out: SERT IC50) was under 50 nM.
As to `COc1cccc(C2COC3(CC[C@@]4(c5ccc(OC)c(OC)c5)CCN(C)[C@H]4C3)O2)c1` (stereo partly drawn) [Compound 111, (3′aS,7′aS)-3′a-(3,4-dimethoxyphenyl)-4-(3-methoxyphenyl)-1′-methyl-spiro[1,3-dioxolane-2,6′-2,3,4,5,7,7a-hexahydroindole]], the IC50 (read-out: SERT IC50) is under 50 nM.
Regarding `COc1ccc([C@@]23CCC(=NNC(=O)c4ccncc4)C[C@@H]2N(C)CC3)cc1OC` [Compound 157, N-[[(3aS,7aS)-3a-(3,4-dimethoxyphenyl)-1-methyl-2,3,4,5,7,7a-hexahydroindol-6-ylidene]amino]pyridine-4-carboxamide], the half-inhibitory concentration (IC50) was under 50 nM.
In the case of `COc1ccc([C@@]23CCC(=NNCCc4ccccc4)C[C@@H]2N(C)CC3)cc1OC` [Compound 159, N-[[(3aS,7aS)-3a-(3,4-dimethoxyphenyl)-1-methyl-2,3,4,5,7,7a-hexahydroindol-6-ylidene]amino]-2-phenyl-ethanamine], the IC50 (read-out: SERT IC50) was under 50 nM.
`COc1ccc([C@@]23CCC(=NNC(=O)CC(CC(=O)O)CC(C)C)C[C@@H]2N(C)CC3)cc1OC` (stereo partly drawn) [Compound 242, 3-[2-[2-[(3aS,7aS)-3a-(3,4-dimethoxyphenyl)-1-methyl-2,3,4,5,7,7a-hexahydroindol-6-ylidene]hydrazino]-2-oxo-ethyl]-5-methyl-hexanoic acid] registered an IC50 of under 50 nM.
`COc1ccc([C@@]23CC/C(=N\NC(=O)NC[C@H]4CC[C@H](C(=O)O)CC4)C[C@@H]2N(C)CC3)cc1OC` [Compound 258, 4-[[[[(3aS,7aS)-3a-(3,4-dimethoxyphenyl)-1-methyl-2,3,4,5,7,7a-hexahydroindol-6-ylidene]amino]carbamoylamino]methyl]cyclohexanecarboxylicacid] had a concentration for half-maximal inhibition (IC50) of under 50 nM.

Values taken from US20250051277A1, “DELIVERY OF THERAPEUTIC ALKALOID COMPOUNDS” (Sensorium Therapeutics, Inc., priority 2021, published 2025).
